Where two headings read alike, the source gives them in different places.
How the values were obtained:
[1] = biological target: ALPK1 (Homo sapiens (Human), UniProt Q96QP1); experiment: ALPK1 in vitro kinase assay (HTRF of TIFA phosphorylation); format: biochemical
Source text: In embodiments, a compound of Formula I, or a subembodiment described herein, is an inhibitor of ALPK1 as measured, for example, in an in vitro kinase assay, or an assay designed to measure the activation of downstream targets of ALPK1 pathway activation, for example NFkB transcriptional activation and the secretion of proinflammatory cytokines and chemokines, such as IL-8, which is also referred to as CXCL-8. In general, the computer program XL fit was used for data analysis, including non-linear regression analysis. The half maximal inhibitory concentration (IC50) was used as the measure of a compound's effectiveness in the assays. IC50 values were determined using the following logistic equation Y=min+(max−min)/(1+(X/IC50^−hillslpoe), where Y is the value at the compound concentration, X. The concentration response curve fitting was conducted using GraphPad Prism version 6.00 software.
ALPK1 kinase activity was measured in an in vitro assay using ADP-Heptose as the ALPK1 ligand and activator of its kinase activity and TIFA protein as the ALPK1 phosphorylation substrate. Since phosphorylated TIFA proteins oligomerize, Homogeneous Time-Resolved Fluorescence (HTRF) was used to measure protein:protein interaction between HA-tagged TIFA proteins as an indicator of TIFA phosphorylation.
In brief, dose-response studies were performed with HEK293 cells cultured in Dulbecco's Modified Eagle Medium (DMEM) supplemented 10% fetal bovine serum (FBS, Hyclone™) containing antibiotics (pen/strep, G418) in 384-well assay plates. Each well contained 0.1 mg TIFA, ALPK1 (2 nM final concentration in reaction mixture) and kinase buffer (100 mM of HEPES pH 7.4, 4 mM DTT, 40 mM MgCl2, 20 mM of β-Glycerol phosphate disodium salt, 0.4 mM of Na3VO4, 0.16 mg/mL). Titrations of the test compounds were prepared in dimethylsulphoxide (DMSO). The reaction was initiated by addition of ATP and ADP-Heptose.
For HTRF, samples were incubated with a Tb cryptate-labeled anti-HA antibody for capturing HA-tagged proteins according to the manufacturer's instructions (PerkinElmer™, CisBio™) and the fluorescence signal was quantified (Tecan Infinite F NANO+). HTRF signals were calculated as the HTRF ratio (ratio of fluorescence measured at 665 nm and 620 nm)×104 (thereby using the signal at 620 nm as an internal standard).
IC50 values were determined using 3- or 4-parameter logistic equation using GraphPad Prism version 6.00. The reference compound, A027, was used as a positive control for each plate.

By UniProt entry, the sequences of proteins in these tests, tags left out.
UniProt Q96QP1, whole entry V1092A: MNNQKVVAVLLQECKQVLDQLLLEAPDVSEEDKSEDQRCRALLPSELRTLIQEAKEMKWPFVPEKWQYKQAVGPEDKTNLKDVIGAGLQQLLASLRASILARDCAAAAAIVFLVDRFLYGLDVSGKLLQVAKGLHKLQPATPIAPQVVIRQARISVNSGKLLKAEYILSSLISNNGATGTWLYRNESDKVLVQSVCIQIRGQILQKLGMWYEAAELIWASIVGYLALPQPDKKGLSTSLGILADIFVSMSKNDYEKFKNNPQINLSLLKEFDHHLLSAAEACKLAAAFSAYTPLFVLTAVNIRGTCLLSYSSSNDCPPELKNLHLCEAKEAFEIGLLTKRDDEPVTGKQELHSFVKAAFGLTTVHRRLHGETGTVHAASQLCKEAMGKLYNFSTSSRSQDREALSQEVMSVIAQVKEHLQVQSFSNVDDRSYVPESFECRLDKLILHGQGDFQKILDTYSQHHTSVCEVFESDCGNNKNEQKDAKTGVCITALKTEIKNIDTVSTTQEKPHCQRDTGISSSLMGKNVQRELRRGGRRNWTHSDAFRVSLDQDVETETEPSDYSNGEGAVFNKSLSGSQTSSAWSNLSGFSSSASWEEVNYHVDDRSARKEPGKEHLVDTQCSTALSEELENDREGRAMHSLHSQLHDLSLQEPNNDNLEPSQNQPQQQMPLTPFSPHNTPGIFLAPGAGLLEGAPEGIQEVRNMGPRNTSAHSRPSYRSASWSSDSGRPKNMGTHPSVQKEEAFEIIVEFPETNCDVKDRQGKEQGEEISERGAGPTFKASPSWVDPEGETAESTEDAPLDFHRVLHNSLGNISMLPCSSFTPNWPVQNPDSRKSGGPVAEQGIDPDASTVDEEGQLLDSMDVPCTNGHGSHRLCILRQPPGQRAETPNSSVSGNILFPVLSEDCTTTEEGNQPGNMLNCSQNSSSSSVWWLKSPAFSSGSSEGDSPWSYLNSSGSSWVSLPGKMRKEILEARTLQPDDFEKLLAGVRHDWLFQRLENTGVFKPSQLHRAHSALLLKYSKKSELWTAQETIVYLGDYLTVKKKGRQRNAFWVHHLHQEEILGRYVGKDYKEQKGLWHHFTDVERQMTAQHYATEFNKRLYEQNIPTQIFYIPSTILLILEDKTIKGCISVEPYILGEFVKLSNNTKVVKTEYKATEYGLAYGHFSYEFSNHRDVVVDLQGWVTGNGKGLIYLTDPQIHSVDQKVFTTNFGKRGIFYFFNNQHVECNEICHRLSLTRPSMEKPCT

[2] = biological target: hALPK1-V1092A (Homo sapiens (Human), UniProt Q96QP1, V1092A); experiment: cell-based
[3] = ALPK1 2 nM, TIFA substrate, ADP-Heptose activator, HTRF readout

C#CC(C)(c1ccc(Br)cc1)c1csc(NC(C)=O)n1 (stereo not shown) [Example D009, N-(4-(2-(4-bromophenyl)but-3-yn-2-yl)thiazol-2-yl)acetamide] showed an IC50 [1, 3] of 16 nM.

Work on C#C[C@@](C)(c1ccc(Br)cc1)c1csc(NC(C)=O)n1 [Example D011, (S)-N-(4-(2-(4-bromophenyl)but-3-yn-2-yl)thiazol-2-yl)acetamide] yielded an IC50 [1, 3] of 14 nM.

C#C[C@@](C)(c1ccc(Cl)cc1)c1csc(NC(=O)N2CCc3cc(N4CCNCC4)ccc3C2)n1 [Example A281, N-(4-(2-(4-chlorophenyl)but-3-yn-2-yl)thiazol-2-yl)-6-(piperazin-1-l)-3,4-dihydroisoquinoline-2(1H)-carboxamide] showed an IC50 [2] of 486 nM and an IC50 [1] of 38 nM.

Compound C#C[C@](C)(c1ccc(Br)cc1)c1csc(NC(C)=O)n1 [Example D010, (R)-N-(4-(2-(4-bromophenyl)but-3-yn-2-yl)thiazol-2-yl)acetamide] has an IC50 [1, 3] of 102 nM.

C#C[C@](C)(c1ccc(Cl)cc1)c1csc(NC(=O)N2CCc3cc(N4CCNCC4)ccc3C2)n1 (stereo in doubt) [Example A280, N-(4-(2-(4-chlorophenyl)but-3-yn-2-yl)thiazol-2-yl)-6-(piperazin-1-yl)-3,4-dihydroisoquinoline-2(1H)-carboxamide] was tested, and the IC50 [1] was 21 nM.

C#C[C@@](C)(c1ccc(Cl)cc1)c1csc(NC(=O)N2CCc3cc(N4CCNCC4)ccc3C2)n1 [Example A260, (S)-N-(4-(2-(4-chlorophenyl)but-3-yn-2-yl)thiazol-2-yl)-6-(piperazin-1-yl)-3,4-dihydroisoquinoline-2(1H)-carboxamide] showed an IC50 [1] of 74 nM.

Source: patent US20240109853A1 (Shanghai Yao Yuan Biotechnology Co., Ltd., priority 2020, published 2024)
